Laboratory results from ChEMBL document CHEMBL4002590, “Design and Synthesis of a Pan-Janus Kinase Inhibitor Clinical Candidate (PF-06263276) Suitable for Inhaled and Topical Delivery for the Treatment of Inflammatory Diseases of the Lungs and Skin” (J Med Chem, 2017).

Chains of the proteins cited; added tags and fusions are not shown. Lines headed by an entry give the natural chain unless they say otherwise; changes in a name come on top.
UniProt P23458: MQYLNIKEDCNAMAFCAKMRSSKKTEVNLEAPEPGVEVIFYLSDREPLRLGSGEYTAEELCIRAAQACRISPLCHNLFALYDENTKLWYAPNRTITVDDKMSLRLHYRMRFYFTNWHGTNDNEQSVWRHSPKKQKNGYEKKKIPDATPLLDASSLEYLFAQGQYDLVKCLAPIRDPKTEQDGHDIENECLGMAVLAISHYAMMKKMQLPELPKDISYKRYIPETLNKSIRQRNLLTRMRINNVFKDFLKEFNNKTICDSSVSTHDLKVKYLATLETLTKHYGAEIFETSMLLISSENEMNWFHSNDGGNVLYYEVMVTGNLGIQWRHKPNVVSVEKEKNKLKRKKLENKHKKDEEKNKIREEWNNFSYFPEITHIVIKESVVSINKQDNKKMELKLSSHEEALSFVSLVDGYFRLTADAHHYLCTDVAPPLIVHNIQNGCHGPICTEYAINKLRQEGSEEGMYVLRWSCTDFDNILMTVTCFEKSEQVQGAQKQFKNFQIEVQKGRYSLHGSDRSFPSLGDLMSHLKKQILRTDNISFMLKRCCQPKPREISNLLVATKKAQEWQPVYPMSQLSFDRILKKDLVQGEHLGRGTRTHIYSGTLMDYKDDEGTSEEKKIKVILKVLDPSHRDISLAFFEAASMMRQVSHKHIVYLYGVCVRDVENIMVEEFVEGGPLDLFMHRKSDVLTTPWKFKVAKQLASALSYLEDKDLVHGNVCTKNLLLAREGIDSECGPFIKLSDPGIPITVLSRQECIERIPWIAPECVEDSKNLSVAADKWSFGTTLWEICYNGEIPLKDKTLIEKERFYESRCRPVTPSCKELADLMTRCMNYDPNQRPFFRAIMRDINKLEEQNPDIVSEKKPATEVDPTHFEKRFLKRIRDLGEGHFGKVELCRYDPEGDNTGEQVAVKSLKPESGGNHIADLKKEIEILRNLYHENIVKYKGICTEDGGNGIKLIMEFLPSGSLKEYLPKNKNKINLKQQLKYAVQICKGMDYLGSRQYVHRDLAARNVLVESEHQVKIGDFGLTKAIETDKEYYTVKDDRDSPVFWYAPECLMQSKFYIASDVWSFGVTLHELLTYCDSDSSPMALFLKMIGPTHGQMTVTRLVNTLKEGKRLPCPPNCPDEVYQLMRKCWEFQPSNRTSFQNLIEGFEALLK
UniProt P52333: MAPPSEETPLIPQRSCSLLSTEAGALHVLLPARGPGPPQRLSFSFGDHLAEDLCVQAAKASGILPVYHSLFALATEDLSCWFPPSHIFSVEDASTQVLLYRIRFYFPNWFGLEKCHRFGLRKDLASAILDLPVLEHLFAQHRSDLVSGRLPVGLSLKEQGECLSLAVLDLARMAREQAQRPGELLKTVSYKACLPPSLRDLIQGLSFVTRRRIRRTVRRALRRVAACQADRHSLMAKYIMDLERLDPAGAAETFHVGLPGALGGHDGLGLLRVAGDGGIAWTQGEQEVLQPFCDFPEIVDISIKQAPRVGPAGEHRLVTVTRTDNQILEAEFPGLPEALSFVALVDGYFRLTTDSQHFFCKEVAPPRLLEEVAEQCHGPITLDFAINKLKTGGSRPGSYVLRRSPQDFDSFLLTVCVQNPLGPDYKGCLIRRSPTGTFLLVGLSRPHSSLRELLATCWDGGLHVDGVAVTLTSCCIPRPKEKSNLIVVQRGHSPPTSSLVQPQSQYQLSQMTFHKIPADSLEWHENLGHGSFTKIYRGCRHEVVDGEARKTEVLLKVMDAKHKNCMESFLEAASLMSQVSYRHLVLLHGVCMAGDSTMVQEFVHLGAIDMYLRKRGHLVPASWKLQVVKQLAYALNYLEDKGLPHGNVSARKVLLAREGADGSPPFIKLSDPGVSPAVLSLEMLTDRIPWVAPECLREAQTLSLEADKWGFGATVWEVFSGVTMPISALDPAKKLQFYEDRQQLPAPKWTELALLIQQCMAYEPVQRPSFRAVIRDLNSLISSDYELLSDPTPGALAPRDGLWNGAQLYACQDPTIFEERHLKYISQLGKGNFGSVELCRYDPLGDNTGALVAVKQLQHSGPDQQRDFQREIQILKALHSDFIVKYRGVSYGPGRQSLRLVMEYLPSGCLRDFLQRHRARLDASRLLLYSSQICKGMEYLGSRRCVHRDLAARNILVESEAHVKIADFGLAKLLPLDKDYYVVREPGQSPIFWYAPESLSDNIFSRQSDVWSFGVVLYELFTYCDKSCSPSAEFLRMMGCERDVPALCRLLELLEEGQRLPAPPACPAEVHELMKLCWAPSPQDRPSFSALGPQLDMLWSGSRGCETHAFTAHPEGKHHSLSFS
UniProt O60674: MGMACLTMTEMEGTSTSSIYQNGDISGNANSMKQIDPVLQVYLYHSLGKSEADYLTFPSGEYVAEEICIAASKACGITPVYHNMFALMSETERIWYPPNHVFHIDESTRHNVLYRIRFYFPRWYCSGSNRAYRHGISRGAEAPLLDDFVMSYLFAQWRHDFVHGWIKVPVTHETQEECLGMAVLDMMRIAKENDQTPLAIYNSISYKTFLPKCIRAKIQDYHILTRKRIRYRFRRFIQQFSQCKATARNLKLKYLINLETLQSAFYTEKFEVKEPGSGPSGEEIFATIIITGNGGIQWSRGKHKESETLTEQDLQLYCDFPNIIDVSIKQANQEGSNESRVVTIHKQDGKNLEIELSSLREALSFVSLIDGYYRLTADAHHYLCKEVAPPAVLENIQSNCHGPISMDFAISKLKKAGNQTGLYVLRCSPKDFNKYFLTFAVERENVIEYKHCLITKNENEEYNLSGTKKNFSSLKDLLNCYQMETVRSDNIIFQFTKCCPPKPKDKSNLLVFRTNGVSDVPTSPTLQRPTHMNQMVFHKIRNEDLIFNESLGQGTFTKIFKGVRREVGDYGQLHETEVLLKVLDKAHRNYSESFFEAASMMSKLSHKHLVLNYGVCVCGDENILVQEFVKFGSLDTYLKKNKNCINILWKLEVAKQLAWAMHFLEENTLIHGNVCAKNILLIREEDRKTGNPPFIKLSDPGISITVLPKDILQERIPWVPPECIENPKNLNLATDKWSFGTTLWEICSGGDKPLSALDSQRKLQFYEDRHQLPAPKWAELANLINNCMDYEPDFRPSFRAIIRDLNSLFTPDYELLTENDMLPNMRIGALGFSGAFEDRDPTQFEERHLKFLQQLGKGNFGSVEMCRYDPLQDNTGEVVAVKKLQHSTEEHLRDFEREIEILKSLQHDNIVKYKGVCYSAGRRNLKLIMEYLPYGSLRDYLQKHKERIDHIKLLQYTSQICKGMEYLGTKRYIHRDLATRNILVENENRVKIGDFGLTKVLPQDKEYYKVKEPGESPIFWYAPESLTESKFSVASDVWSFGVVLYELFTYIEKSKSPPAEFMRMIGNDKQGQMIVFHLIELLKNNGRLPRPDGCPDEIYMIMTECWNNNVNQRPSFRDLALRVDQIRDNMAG
UniProt P29597: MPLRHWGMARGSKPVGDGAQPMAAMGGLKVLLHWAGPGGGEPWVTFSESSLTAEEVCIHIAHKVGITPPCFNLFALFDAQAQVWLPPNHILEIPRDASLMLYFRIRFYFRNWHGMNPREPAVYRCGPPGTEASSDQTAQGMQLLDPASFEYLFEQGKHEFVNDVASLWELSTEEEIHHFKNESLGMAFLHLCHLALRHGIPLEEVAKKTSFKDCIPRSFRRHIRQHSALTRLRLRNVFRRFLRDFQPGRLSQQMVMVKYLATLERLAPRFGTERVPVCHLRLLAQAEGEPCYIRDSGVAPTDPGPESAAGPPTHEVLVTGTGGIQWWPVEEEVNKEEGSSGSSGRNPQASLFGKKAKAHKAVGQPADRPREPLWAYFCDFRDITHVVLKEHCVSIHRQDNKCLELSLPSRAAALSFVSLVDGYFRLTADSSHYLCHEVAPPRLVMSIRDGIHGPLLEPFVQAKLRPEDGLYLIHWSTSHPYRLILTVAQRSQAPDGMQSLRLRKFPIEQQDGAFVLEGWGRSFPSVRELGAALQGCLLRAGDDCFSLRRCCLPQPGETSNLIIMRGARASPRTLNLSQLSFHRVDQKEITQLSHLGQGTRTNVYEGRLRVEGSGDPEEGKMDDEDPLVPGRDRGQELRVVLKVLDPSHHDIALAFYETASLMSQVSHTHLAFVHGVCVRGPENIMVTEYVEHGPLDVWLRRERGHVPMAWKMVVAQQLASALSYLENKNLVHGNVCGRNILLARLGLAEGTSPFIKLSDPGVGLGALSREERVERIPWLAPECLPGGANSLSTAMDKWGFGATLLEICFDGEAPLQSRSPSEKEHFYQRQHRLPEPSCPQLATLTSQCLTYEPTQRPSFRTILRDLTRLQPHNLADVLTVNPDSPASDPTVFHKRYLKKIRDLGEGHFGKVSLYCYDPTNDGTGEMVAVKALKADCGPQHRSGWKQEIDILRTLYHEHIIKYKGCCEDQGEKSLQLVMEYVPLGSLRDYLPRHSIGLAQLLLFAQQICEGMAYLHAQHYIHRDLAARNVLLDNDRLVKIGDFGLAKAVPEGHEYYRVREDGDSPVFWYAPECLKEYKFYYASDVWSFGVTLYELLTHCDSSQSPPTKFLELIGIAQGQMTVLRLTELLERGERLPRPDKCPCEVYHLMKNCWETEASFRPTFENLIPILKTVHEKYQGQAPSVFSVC

Experiments:
[1] = target: Tyrosine-protein kinase JAK1 (Homo sapiens, UniProt P23458); experiment: Inhibition of GST tagged human recombinant JAK1 catalytic domain expressed in baculovirus using peptide substrate preincubated for 60 mins followed by substrate addition and measured after 60 mins by microfluidic assay
Outline: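 Caliper microfluidic assay of peptide-substrate phosphorylation by the relevant JAK enzyme, run at 1 mM ATP; IC50 values are geometric means of at least three determinations.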

[2] = target: Janus Kinase (JAK) (Homo sapiens, UniProt P52333+P23458+O60674+P29597); experiment: Inhibition of JAK in human PBMC assessed as reduction in human recombinant IL-2/mouse anti-human CD3 stimulated IFNgamma production preincubated for 1 hr followed by IL2/CD3 stimulation measured after 18 hrs by ELISA
Outline: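 Primary PBMCs stimulated with IL-2; inhibition of IFNγ release measured. IC50 values are geometric means of at least three determinations.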

[3] = target: T1, JAK1/TYK2 (Homo sapiens, UniProt P23458+P29597); experiment: Inhibition of JAK1/TYK2 in human whole blood lymphocytes assessed as inhibition of IFNalpha induced STAT3 phosphorylation preincubated for 45 mins followed by IFNalpha addition and measured after 20 mins by flow cytometric analysis; format: cell-based
[4] = target: T1, JAK1/TYK2; format: cell-based
[5] = target: JAK3/JAK1 (Homo sapiens, UniProt P23458+P52333); experiment: Inhibition of JAK1/JAK3 in human whole blood assessed as inhibition of IL-4 induced STAT6 phosphorylation preincubated for 45 mins followed by Il-4 addition and measured after 20 mins by flow cytometric analysis; format: protein-complex assay
[6] = target: JAK2/JAK1 (Homo sapiens, UniProt O60674+P23458); experiment: Inhibition of JAK1/JAK2 in human whole blood assessed as inhibition of IL-6 induced STAT3 phosphorylation preincubated for 45 mins followed by Il-6 addition and measured after 20 mins by flow cytometric analysis; format: protein-complex assay

## CCc1cc(O)c(F)cc1-c1ccc2c(-c3nc4c([nH]3)CCN(C(=O)c3cnc(N5CCCCC5)cn3)C4)n[nH]c2c1
[1]
  IC50: 2.2 nM
[2]
  IC50: 70.3 nM
[3]
  IC50: 620 nM
[4]
  IC50: 4.2 µM
[5]
  IC50: 1800 nM
[6]
  IC50: 2100 nM
